From patent publication US8133912B2 (priority 2006, dated 2012)

Legend:
[1] = system: cell growth; test: cytotoxicity, 50% inhibition of cell growth concentration (IC50); assay type: cell-based; settings: cytotoxicity examination, 37° C., 24 hours
[2] = system: mouse; settings: oral toxicity; cited from earlier work

| Substance | IC50 (50% Growth inhibition) [1] [µg/mL] | LD50 (50% Lethal dose) [2] [mg/kg] |
| --- | --- | --- |
| monomethylated arsenic acid | 1200 | 1800 |
| dimethylated arsinic acid | 320 | 1200 |
| arsenocholine | >10000 | 6500 |
| trimethylarsineoxide | >10000 | 10600 |
| arsenobetaine (trimethyl arsonium acetic acid) | >10000 | >10000 |
